Values quoted from earlier work, collected in patent US8034904B2, “Anti-IGF-I receptor antibody” (Immunogen Inc., priority 2002, dated 2011).

System: multiple myeloma
Conditions: after 27 months of follow-up; 3 X 10^6 IU/m^2 subcutaneously three times weekly; cited from earlier work

## IFN-α2: recombinant IFN-α2 given as remission maintenance
  evaluable patients relapsed: 24%
